{"source": "patent US20250262305A1", "about": "(Aegis Therapeutics, LLC, priority 2018, published 2025)", "origin": "cited, not measured here", "settings": "Mean ± SD, cited from earlier work", "data": [{"compound": "CNC[C@H](O)c1ccc(O)c(O)c1", "note": "[Epinephrine, (R)-4-(1-Hydroxy-2-(methylamino)ethyl)benzene-1,2-diol]", "values": [{"measurement": "AUC0-120 min", "setting": "Intramuscular (IM) 0.3 mg", "value": "18.3 ± 9.3", "unit": "ng·min/mL"}, {"measurement": "Cmax", "setting": "Intranasal (IN) 5 mg", "value": "0.386 ± 0.152", "unit": "ng/mL"}]}]}
